The data set can be described thus: Water solubility of the peptides. The class given is physicochemical.

Regarding “Ac-Ala Glu Ile Cys Leu Leu Pro Leu Asp Tyr Gly Pro Cys Arg [Peptide 6-Ac]”, the “water solubility compared to non-acetylated counterpart” value was “more water soluble than their corresponding non acetylated counterparts”.

The record behind these values is patent publication US11448657B2, “Methods and kits for assessing Heparanase procoagulant activity, compositions comprising Heparanase, and methods for the treatment of coagulation-related disorders” (RAMBAM MED-TECH, priority 2011, dated 2022).
